Assay results as given in patent US6583179B2, “Substituted aminoalkylamide derivatives as antagonists of follicle stimulating hormone” (Ortho-McNeil Pharmaceutical, Inc., priority 1999, dated 2003).

By UniProt entry, the sequences of proteins in these tests, tags left out. Residues count along the entry.
UniProt P23945, 18-695 limits assumed: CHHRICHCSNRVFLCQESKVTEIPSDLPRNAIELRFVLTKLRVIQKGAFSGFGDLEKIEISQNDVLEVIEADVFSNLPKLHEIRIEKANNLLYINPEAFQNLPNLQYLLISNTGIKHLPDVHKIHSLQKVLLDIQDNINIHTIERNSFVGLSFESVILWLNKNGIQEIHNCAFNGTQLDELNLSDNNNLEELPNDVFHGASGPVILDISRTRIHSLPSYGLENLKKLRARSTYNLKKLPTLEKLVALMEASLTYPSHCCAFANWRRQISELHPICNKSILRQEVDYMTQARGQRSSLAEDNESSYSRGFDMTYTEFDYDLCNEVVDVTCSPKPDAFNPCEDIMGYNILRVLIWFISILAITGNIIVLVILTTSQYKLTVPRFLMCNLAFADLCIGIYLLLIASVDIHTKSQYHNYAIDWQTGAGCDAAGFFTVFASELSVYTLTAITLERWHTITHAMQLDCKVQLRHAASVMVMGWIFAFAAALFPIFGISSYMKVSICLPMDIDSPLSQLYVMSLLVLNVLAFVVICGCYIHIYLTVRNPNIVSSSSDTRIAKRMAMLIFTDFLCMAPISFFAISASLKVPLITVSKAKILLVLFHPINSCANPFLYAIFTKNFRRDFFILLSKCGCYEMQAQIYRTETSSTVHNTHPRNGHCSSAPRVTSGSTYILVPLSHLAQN

Target: human FSH receptor (Homo sapiens, UniProt P23945)
Test: hFSHR CHO cAMP assay (rhFSHR-cLUC cells, FSH-stimulated cAMP, radioimmunoassay)
Conditions: read-out: EC50 hFSHR CHO cAMP; inhibition of cAMP produced by EC70 dose of FSH (4.85 nM); maximum concentration 50 μM

| SMILES | EC50 [nM] |
| --- | --- |
| Cc1ccccc1-c1ccc(S(=O)(=O)N(CC(=O)NC2CCC(CC3CCC(N)CC3)CC2)C[C@H](C)c2ccccc2)cc1 (some centres unmarked) | 1330 |
| C[C@@H](CN(CC(=O)NCc1ccc(CN)cc1)S(=O)(=O)c1ccc(-c2ccccc2S(=O)(=O)NC(C)(C)C)cc1)c1ccccc1 | 23500 |
| COc1ccc(-c2cccc(S(=O)(=O)N(CCc3ccccc3OC)CC(=O)NCc3ccc(CN)cc3)c2)cc1 | 5330 |
| C[C@H](CN(CC(=O)NCc1ccc(CN)cc1)S(=O)(=O)c1ccc(Br)cc1)c1ccccc1 | ≥ 50000 |
| NCCCCCCNC(=O)CN(CCc1cccs1)S(=O)(=O)c1ccc(-c2ccccc2Cl)cc1 | 110 |
| COc1cc(CCN(CC(=O)NCCCCCCN)S(=O)(=O)c2ccc(-c3ccccc3Cl)cc2)cc(OC)c1 | 200 |
| COc1ccc(-c2ccc(S(=O)(=O)N(CCc3ccccc3OC)CC(=O)N3CCNCC3)cc2)c(OC)c1 | 12600 |
| C[C@@H](CN(CC(=O)NCc1ccc(CN)cc1)S(=O)(=O)c1ccc(-c2cccc(Cl)c2)cc1)c1ccccc1 [418] | 850 |
| COc1cccc(CCN(CC(=O)NCCCCCCN)S(=O)(=O)c2ccc(-c3ccccc3Cl)cc2)c1OC | 390 |
| Cc1cccc(-c2ccc(S(=O)(=O)N(CC(=O)NCc3ccc(CN)cc3)C[C@H](C)c3ccccc3)cc2)c1 | 730 |
| COc1ccccc1CCN(CC(=O)N1CCNCC1)S(=O)(=O)c1ccc(-c2cccc(NC(C)=O)c2)cc1 | 11200 |
| Cc1ccccc1-c1ccc(S(=O)(=O)N(CC(=O)NCc2ccc(CN)cc2)CC(C)c2ccc(Cl)cc2)cc1 (centres unmarked) | 690 |
| COc1ccc(OC)c(CCN(CC(=O)NCc2ccc(CN)cc2)S(=O)(=O)c2ccc(-c3ccccc3Cl)cc2)c1 | 140 |
| CC(C)(CN(CC(=O)NCc1ccc(CN)cc1)S(=O)(=O)c1ccc(-c2ccccc2Cl)cc1)c1ccccc1 | 21900 |
| COc1ccc(CCN(CC(=O)NCc2ccc(CN)cc2)S(=O)(=O)c2ccc(-c3ccccc3Cl)cc2)cc1 | 460 |
| CC(C)N(C(=O)c1ccccc1-c1ccc(S(=O)(=O)N(CC(=O)NCc2ccc(CN)cc2)C[C@H](C)c2ccccc2)cc1)C(C)C | 32500 |
| NCc1ccc(CNC(=O)CN(CCc2cccs2)S(=O)(=O)c2ccc(-c3ccccc3Cl)cc2)cc1 | 190 |
| COc1ccccc1CCN(CC(=O)NCc1ccc(CN)cc1)S(=O)(=O)c1cccc(-c2ccccc2C(F)(F)F)c1 | 6760 |
| COc1ccccc1CCN(CC(=O)N1CCNCC1)S(=O)(=O)c1ccc(-c2ccccc2)cc1 | 24300 |
| NCc1ccc(CNC(=O)CN(CCc2ccccc2)S(=O)(=O)c2ccc(-c3cccc(F)c3)cc2)cc1 | 17000 |
| COc1ccccc1CN(CC(=O)NCc1cccc(CN)c1)S(=O)(=O)c1ccc(-c2ccc(Cl)cc2Cl)cc1 | 3150 |
| COc1ccccc1CN(CC(=O)N1CCNCC1)S(=O)(=O)c1ccc(-c2ccccc2OC)cc1 | 40600 |
| COc1ccccc1CCN(CC(=O)NCc1ccc(CN)cc1)S(=O)(=O)c1ccc([N+](=O)[O-])cc1 | 2130 |
| C[C@@H](CN(CC(=O)NCc1ccc(CN)cc1)S(=O)(=O)c1ccc(-c2ccc(OC(F)(F)F)cc2)cc1)c1ccccc1 | 520 |
| C[C@@H](CN(CC(=O)NCc1ccc(CN)cc1)S(=O)(=O)c1ccc(-c2ccc3ccccc3c2)cc1)c1ccccc1 | 18800 |
| COc1ccccc1CCN(CC(=O)NCc1ccc(CN)cc1)S(=O)(=O)c1ccc(-c2cccc(C)c2)s1 | 3180 |
| C[C@@H](CN(CC(=O)NCc1ccc(CN)cc1)S(=O)(=O)c1ccc(-c2cc(Cl)cc(Cl)c2)cc1)c1ccccc1 | > 50000 |

| SMILES | EC50 [nM] |
| --- | --- |
| COc1ccc(OC)c(-c2ccc(S(=O)(=O)N(CC(=O)NCc3ccc(CN)cc3)C[C@H](C)c3ccccc3)cc2)c1 | 170 |
| C[C@@H](CN(CC(=O)NCc1ccc(CN)cc1)S(=O)(=O)c1ccc(-c2cccc(C(F)(F)F)c2)cc1)c1ccccc1 | 510 |
| Cc1ccccc1-c1ccc(S(=O)(=O)N(CC(=O)NCc2ccc(CN)cc2)C[C@H](C)c2ccccc2)cc1 [415] | 720 |
| COC(CN(CC(=O)NCc1ccc(CN)cc1)S(=O)(=O)c1ccc(-c2ccccc2Cl)cc1)c1ccccc1 (centres unmarked) | 920 |
| C[C@@H](CN(CC(=O)NCCCCCCN)S(=O)(=O)c1ccc(-c2cccc(F)c2)cc1)c1ccccc1 | 220 |
| C[C@@H](CN(CC(=O)NCc1ccc(CN)cc1)S(=O)(=O)c1ccc(-c2cccc(F)c2)cc1)c1ccccc1 [Compound 203] | 1380 |
| C[C@H](CN(CC(=O)NCc1ccc(CN)cc1)S(=O)(=O)c1ccc(-c2ccc(Cl)cc2Cl)cc1)c1ccccc1 | 450 |
| CC(=O)Nc1cccc(-c2ccc(S(=O)(=O)N(CC(=O)NCc3ccc(CN)cc3)C[C@H](C)c3ccccc3)cc2)c1 | 510 |
| Cc1ccc(-c2ccc(S(=O)(=O)N(CC(=O)NCc3ccc(CN)cc3)C[C@H](C)c3ccccc3)cc2)c(Cl)c1 | 2360 |
| C[C@@H](CN(CC(=O)NCC1CCC(CN)CC1)S(=O)(=O)c1ccc(-c2cccc(F)c2)cc1)c1ccccc1 (some centres unmarked) | 340 |
| C[C@@H](CN(CC(=O)NCc1ccc(CN)cc1)S(=O)(=O)c1ccc(-c2ccc(F)cc2)cc1)c1ccccc1 [414] | 350 |
| COc1ccccc1CCN(CC(=O)NCc1ccc(CN)cc1)S(=O)(=O)c1cccc(-c2ccc(C(F)(F)F)cc2)c1 | ≥ 50000 |
| COc1ccccc1C(C)CN(CC(=O)NCCCCCCN)S(=O)(=O)c1ccc(-c2ccccc2Cl)cc1 (centres unmarked) | 40 |
| CC(CN(CC(=O)NCc1ccc(CN)cc1)S(=O)(=O)c1ccc(-c2ccccc2Cl)cc1)c1ccccc1 (centres unmarked) | 220 |
| C[C@@H](CN(CC(=O)NCc1ccc(CN)cc1)S(=O)(=O)c1ccc(-c2cccc3c2Sc2ccccc2S3)cc1)c1ccccc1 | > 50000 |
| COc1cccc(-c2cccc(S(=O)(=O)N(CCc3ccccc3OC)CC(=O)NCc3ccc(CN)cc3)c2)c1 | 4330 |
| COc1ccccc1-c1ccc(S(=O)(=O)N(CC(=O)NCc2ccc(CN)cc2)C[C@@H](C)c2ccccc2)cc1 | 230 |
| NCCCCCCNC(=O)CN(CCc1cccc(Cl)c1)S(=O)(=O)c1ccc(-c2ccccc2Cl)cc1 | 1200 |
| COc1ccccc1CN(CC(=O)N1CCNCC1)S(=O)(=O)c1ccc(-c2ccccc2)cc1 | 38900 |
| CC(CN(CC(=O)NCc1ccc(CN)cc1)S(=O)(=O)c1ccc(-c2cccc(F)c2)cc1)c1ccccc1 (centres unmarked) | 430 |
| COc1cc(CCN(CC(=O)NCCCCCCN)S(=O)(=O)c2ccc(-c3ccccc3Cl)cc2)cc(-c2ccccc2Cl)c1OC | 620 |
| COc1ccccc1CCN(CC(=O)NCc1ccc(CN)cc1)S(=O)(=O)c1ccccc1-c1ccc2c(c1)OCO2 | 31100 |
| NCc1ccc(CNC(=O)CN(CCc2c(Cl)cccc2Cl)S(=O)(=O)c2ccc(-c3ccccc3Cl)cc2)cc1 | 110 |
| COc1ccc(-c2ccccc2S(=O)(=O)N(CCc2ccccc2OC)CC(=O)NCc2ccc(CN)cc2)cc1 | 13500 |
| C[C@H](CN(CC(=O)N1CCC(C2CCNCC2)CC1)S(=O)(=O)c1ccc(-c2cccc(F)c2)cc1)c1ccccc1 | 1840 |
| COc1ccccc1CCN(CC(=O)NCc1cccc(CN)c1)S(=O)(=O)c1ccc(-c2ccccc2OC)cc1 | 650 |
| Cc1ccccc1CCN(CC(=O)NCCCCCCN)S(=O)(=O)c1ccc(-c2ccccc2Cl)cc1 | 350 |

| SMILES | EC50 [nM] |
| --- | --- |
| COc1ccccc1CCN(CC(=O)N1CCNCC1)S(=O)(=O)c1ccc(-c2ccccc2OC)cc1 | 9440 |
| COc1ccccc1CN(CC(=O)N1CCNCC1)S(=O)(=O)c1ccc(-c2cccc(F)c2)cc1 | ≥ 50000 |
| Cc1ccccc1-c1ccc(S(=O)(=O)N(CC(=O)NCC2CCCC(CN)C2)C[C@@H](C)c2ccccc2)cc1 (some centres unmarked) | 1070 |
| C[C@@H](CN(CC(=O)NCc1ccc(CN)cc1)S(=O)(=O)c1ccc(-c2cccc3c2Oc2ccccc2S3)cc1)c1ccccc1 | > 50000 |
| COc1ccccc1CCN(CC(=O)NCc1ccc(CN)cc1)S(=O)(=O)c1ccccc1-c1ccc(OC)c(OC)c1OC | 3130 |
| COc1ccccc1CCN(CC(=O)NCc1ccc(CN)cc1)S(=O)(=O)c1ccccc1-c1ccccc1OC | 2100 |
| COc1ccc(C=O)cc1-c1ccc(S(=O)(=O)N(CC(=O)NCc2ccc(CN)cc2)C[C@H](C)c2ccccc2)cc1 | > 50000 |
| COc1ccccc1CN(CC(=O)N1CCNCC1)S(=O)(=O)c1ccc(-c2ccccc2Cl)cc1 | ≥ 50000 |
| NCc1ccc(CNC(=O)CN(CCc2ccccc2N)S(=O)(=O)c2ccc(-c3ccccc3Cl)cc2)cc1 | 610 |
| COc1ccccc1CCN(CC(=O)NCc1ccc(CN)cc1)S(=O)(=O)c1cc(C)ccc1OC | 18600 |
| COc1cccc(-c2ccc(S(=O)(=O)N(CCc3ccccc3OC)CC(=O)NCc3ccc(CN)cc3)s2)c1 | 9400 |
| COc1cccc(CCN(CC(=O)NCCCCCCN)S(=O)(=O)c2ccc(-c3ccccc3Cl)cc2)c1 | 1020 |
| COc1ccccc1CCN(CC(=O)NCc1ccc(CN)cc1)S(=O)(=O)c1cccc(-c2cccc(C(F)(F)F)c2)c1 | 2080 |
| COc1ccccc1CCN(CC(=O)NCc1ccc(CN)cc1)S(=O)(=O)c1ccccc1-c1cccc(F)c1 | 3650 |
| COc1ccccc1CN(CC(=O)N1CCNCC1)S(=O)(=O)c1ccc(-c2cccnc2)cc1 | ≥ 50000 |
| COc1ccccc1CCN(CC(=O)NCc1ccc(CN)cc1)S(=O)(=O)c1ccc(-c2ccsc2)s1 | 1160 |
| CCCCc1ccc(S(=O)(=O)N(CC(=O)NCc2ccc(CN)cc2)C[C@H](C)c2ccccc2)cc1 | 5980 |
| COc1ccccc1CCN(CC(=O)NCc1ccc(CN)cc1)S(=O)(=O)c1ccc(-c2ccccc2F)s1 | 7890 |
| Cc1ccc(Cl)cc1-c1ccc(S(=O)(=O)N(CC(=O)NCc2ccc(CN)cc2)C[C@H](C)c2ccccc2)cc1 | 370 |
| COc1ccccc1CCN(CC(=O)NCc1ccc(CN)cc1)S(=O)(=O)c1ccc(-c2ccccc2Cl)s1 | 2450 |
| COc1ccccc1CCN(CC(=O)NCc1ccc(CN)cc1)S(=O)(=O)c1cccc(-c2cccc(N)c2)c1 | 2630 |
| COc1ccccc1CN(CC(=O)N1CCNCC1)S(=O)(=O)c1ccc(-c2c(C)noc2C)cc1 | ≥ 50000 |
| CN1CCCC1CCN(CC(=O)NCc1ccc(CN)cc1)S(=O)(=O)c1ccc(-c2ccccc2Cl)cc1 (centres unmarked) | 14800 |
| COc1ccccc1CCN(CC(=O)NCc1ccc(CN)cc1)S(=O)(=O)c1ccccc1 | 4530 |
| COc1ccccc1CCN(CC(=O)NCc1cccc(CN)c1)S(=O)(=O)c1ccc(-c2ccc(Cl)cc2Cl)cc1 | 900 |
| COc1ccccc1CCN(CC(=O)NCc1ccc(CN)cc1)S(=O)(=O)c1ccccc1-c1ccc(C)cc1 | 6510 |
